Results published in PMC9518283 (Journal of Enzyme Inhibition and Medicinal Chemistry, 2022).

Amino acid sequences for entries named in this document (tags omitted).
UniProt P21397, whole entry: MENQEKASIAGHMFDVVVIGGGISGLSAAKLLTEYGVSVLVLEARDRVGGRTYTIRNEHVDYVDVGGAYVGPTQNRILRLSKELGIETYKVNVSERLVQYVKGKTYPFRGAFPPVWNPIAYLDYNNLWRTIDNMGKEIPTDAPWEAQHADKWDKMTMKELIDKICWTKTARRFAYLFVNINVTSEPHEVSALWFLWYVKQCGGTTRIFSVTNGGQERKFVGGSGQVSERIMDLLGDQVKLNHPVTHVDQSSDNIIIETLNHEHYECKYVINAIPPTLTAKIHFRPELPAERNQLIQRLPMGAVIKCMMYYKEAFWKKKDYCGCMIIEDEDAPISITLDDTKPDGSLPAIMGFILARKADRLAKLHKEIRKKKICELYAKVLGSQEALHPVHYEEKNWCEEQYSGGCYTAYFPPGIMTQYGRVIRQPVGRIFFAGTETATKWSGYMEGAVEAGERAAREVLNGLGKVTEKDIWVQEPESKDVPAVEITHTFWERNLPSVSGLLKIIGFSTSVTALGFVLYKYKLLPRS

Molecular target: T1, hMAO-A (Homo sapiens, UniProt P21397)
T1 construct: purchased Sigma-Aldrich (St. Louis, MO, USA)
Assay: hMAO-A inhibition, kynuramine substrate, HPLC-MS
Type: biochemical
Settings: residual enzyme activity, compound at 1 µM
Method: To confirm the multipotent biological profile of target compounds 1 − 15, 20 − 28, the inhibitory activity towards both isoforms of hMAO was determined in vitro. Gained results are listed in Table 2 as the residual activity of the enzyme after inhibition by the studied compound at two concentrations (10 and 1 μM).
The hMAO-A and hMAO-B enzymes were purchased from Sigma-Aldrich (St. Louis, MO, USA). […]. The mixture was pre-incubated at 37 °C for 5 min and subsequently substrate kynuramine was added to the final concentration of 60 µM in the case of hMAO-A and 30 µM in the case of hMAO-B. The final volume of reaction mixture was 0.1 mL. The whole reaction mixture was incubated at 37 °C for 30 min. The reaction was stopped by the addition of 200 µL acetonitrile/methanol mixture (ratio 1:1) and cooling down to 0 °C. The sample was then centrifuged (16.500× g) for 10 min. The deamination product of kynuramine formed during the enzymatic reaction 4-hydroxyquinoline (4-HQ) was determined by HPLC–MS on a 2.1 mm × 50 mm, 1.8 µm Zorbax RRHD Eclipse plus C18 column (Agilent) by using a 6470 Series Triple Quadrupole mass spectrometer (Agilent) (electrospray ionisation – positive ion mode). Three MRM transitions were followed for kynuramine (165.1 = > 30.2, 165.1 = > 118.0, 165.1 = > 136.0) and 4-HQ (146.1 = > 51.1, 146.1 = > 77.0, 146.1 = > 91.0). […]

C#CCN(C)CCCOc1ccc(Cl)cc1Cl [Clorgyline, reference compound]
% of MAO-A activity (1 µM): 43%
